Measured values as given in ChEMBL document CHEMBL2346500, “Design and synthesis of dual-action inhibitors targeting histone deacetylases and 3-hydroxy-3-methylglutaryl coenzyme A reductase for cancer treatment” (J Med Chem, 2013).
pIC50: −log10 of the molar value.

Key:
[1] = molecular target: T1, Protein deacetylase HDAC6 (Homo sapiens, UniProt Q9UBN7); assay: Inhibition of recombinant HDAC6 (unknown origin) after 10 mins by fluorimetric analysis
T1 sequence (Q9UBN7 whole entry): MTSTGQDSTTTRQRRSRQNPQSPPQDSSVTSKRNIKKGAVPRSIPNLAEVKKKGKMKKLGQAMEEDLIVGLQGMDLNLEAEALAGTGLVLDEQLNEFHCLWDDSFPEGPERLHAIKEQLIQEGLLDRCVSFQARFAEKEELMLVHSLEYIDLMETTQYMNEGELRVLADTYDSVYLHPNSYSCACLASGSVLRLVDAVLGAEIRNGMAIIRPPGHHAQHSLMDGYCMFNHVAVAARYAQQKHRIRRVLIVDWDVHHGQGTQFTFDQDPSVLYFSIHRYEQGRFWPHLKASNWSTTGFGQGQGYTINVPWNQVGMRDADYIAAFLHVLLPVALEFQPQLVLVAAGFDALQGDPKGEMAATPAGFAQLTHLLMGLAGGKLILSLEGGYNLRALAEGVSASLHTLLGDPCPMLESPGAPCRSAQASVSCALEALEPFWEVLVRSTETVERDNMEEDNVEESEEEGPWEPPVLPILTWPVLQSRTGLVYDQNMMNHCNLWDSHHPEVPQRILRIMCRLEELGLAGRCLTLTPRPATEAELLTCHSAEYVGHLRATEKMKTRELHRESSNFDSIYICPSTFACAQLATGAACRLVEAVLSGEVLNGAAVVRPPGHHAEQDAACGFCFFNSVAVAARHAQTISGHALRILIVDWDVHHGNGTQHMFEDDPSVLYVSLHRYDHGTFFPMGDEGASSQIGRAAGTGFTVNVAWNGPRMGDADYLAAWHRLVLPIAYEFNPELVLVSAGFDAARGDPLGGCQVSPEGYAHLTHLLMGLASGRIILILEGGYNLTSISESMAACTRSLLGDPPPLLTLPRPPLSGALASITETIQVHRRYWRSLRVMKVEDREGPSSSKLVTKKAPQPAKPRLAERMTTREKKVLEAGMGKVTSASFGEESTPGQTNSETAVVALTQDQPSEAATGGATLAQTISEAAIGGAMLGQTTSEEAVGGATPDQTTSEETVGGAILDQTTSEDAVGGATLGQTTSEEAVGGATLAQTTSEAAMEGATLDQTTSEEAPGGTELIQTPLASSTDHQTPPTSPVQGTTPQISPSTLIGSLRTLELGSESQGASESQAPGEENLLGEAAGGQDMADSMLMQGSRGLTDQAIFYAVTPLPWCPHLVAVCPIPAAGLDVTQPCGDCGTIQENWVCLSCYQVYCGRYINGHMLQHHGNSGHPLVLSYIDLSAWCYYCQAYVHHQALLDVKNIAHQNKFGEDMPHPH

[2] = molecular target: T2, 3-hydroxy-3-methylglutaryl-coenzyme A reductase (Homo sapiens, UniProt P04035); assay: Inhibition of recombinant HMG-CoA reductase (unknown origin) after 10 mins by spectrophotometric analysis
T2 sequence (P04035 whole entry): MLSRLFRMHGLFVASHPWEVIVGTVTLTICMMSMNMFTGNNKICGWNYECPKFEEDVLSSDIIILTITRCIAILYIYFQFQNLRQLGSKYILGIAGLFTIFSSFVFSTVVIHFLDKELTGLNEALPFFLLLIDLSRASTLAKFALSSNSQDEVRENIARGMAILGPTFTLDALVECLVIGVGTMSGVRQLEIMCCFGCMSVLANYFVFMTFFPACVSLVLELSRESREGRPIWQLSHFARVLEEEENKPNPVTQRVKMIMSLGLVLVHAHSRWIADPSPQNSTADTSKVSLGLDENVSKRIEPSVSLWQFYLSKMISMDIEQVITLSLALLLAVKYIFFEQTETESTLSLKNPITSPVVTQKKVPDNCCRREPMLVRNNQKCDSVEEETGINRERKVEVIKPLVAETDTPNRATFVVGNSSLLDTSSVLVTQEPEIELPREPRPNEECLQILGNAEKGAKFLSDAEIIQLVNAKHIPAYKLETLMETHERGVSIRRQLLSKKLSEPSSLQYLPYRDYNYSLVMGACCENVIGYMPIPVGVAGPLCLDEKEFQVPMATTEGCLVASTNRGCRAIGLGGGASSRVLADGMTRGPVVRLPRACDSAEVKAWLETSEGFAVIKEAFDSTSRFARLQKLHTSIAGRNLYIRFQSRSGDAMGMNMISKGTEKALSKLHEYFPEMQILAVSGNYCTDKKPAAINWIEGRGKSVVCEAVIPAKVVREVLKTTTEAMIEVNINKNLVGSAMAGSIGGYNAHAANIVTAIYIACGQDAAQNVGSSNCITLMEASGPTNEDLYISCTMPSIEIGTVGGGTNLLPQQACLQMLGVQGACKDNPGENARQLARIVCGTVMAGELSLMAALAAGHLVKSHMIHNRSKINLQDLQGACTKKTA

pIC50 [1]: 4.84 | pIC50 [2]: 7.89
Structure (SMILES): CC(C)c1c(C(=O)Nc2ccccc2)c(-c2ccccc2)c(-c2ccc(F)cc2)n1CC[C@@H](O)C[C@@H](O)CC(=O)O [ATORVASTATIN]
